Drawing on paper PMC2906706 (Cancer research, 2010), this text covers IC50 for one compound.

The target in this assay is T1, OCT3 (Homo sapiens, UniProt O75751).
T1 sequence (O75751 1-556): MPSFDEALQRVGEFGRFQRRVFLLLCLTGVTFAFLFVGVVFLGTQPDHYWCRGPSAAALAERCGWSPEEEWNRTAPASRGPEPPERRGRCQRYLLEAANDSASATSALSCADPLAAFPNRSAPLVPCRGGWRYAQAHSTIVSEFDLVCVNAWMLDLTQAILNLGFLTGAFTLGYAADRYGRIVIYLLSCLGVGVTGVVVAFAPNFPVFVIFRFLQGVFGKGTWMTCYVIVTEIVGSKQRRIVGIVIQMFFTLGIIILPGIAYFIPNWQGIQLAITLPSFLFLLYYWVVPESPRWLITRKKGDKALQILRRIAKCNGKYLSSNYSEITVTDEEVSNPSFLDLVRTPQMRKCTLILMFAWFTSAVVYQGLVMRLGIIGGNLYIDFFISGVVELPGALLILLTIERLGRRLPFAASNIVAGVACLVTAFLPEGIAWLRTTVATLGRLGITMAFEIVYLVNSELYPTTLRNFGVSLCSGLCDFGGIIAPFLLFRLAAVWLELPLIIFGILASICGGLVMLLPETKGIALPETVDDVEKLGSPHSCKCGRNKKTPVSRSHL
Description: cell-based.

pIC50: −log10 of the molar value.

Consider `CN1CCN(CCOc2cc(OC3CCOCC3)c3c(Nc4c(Cl)ccc5c4OCO5)ncnc3c2)CC1` [saracatinib, N-(5-chloro-1,3-benzodioxol-4-yl)-7-[2-(4-methylpiperazin-1-yl)ethoxy]-5-(tetrahydro-2H-pyran-4-yloxy)quinazolin-4-amine], for which the negative logarithm of the IC50 (pIC50) is 4.99.
